56 molecules from PubChem BioAssay AID504692 (The Scripps Research Institute Molecular Screening Center, 2011) can be followed below.

Sequences of proteins named here, by UniProt entry; tags and fusion partners are left off.
UniProt P47898, whole entry, looked up: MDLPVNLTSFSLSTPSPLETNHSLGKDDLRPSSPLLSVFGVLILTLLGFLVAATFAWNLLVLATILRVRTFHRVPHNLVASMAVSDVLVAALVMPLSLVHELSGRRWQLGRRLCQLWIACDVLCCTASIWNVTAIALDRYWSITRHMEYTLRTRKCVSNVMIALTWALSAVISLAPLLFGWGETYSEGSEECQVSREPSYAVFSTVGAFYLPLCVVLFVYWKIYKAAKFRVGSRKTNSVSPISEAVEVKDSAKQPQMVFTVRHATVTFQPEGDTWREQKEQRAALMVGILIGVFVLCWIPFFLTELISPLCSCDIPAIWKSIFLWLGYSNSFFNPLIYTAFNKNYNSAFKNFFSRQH

SMILES strings stand for the structures. The entries are a selection whose mix differs from that of the whole data set. Calls of active or inactive are those of the source. Cut-off read from the data, not from the text of the source: active = activation mostly above about 9.5% (no sharp cut-off); inactive = mostly below about 7.6%.

This assay concerns the target 5-hydroxytryptamine receptor 5A (Homo sapiens) (UniProt P47898). Briefly: HTR5A agonists in luminescence cell assay, primary screen, counter-screen for OPRM1-OPRD1 heterodimer agonist project, full-deck HTS (AID 504692).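 Note: 0% = cells with vehicle only and 100% = reference agonist.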 The conditions noted are these: cell-based, at 9.3 µM, active compounds read high. Background: A counterscreen serves to expose hits that act by an unwanted route or on another target.
`CCOC(=O)Nc1cccc([As](=O)(O)O)c1`: the activation was inactive: -1.05%.

With `COC(=O)C[C@H](NC(=O)Cn1cnc2c(OCc3ccccc3)ncnc21)C(=O)OC`, the activation is inactive: 1.26%.

For the molecule `Cn1c(=O)[nH]c(=O)c2c1ncn2CCN1CCCCC1`, the activation was inactive: 0.32%.

As to `O=C(Cn1c(CO)nc2ccccc21)Nc1ccc2c(c1)OCCCO2`, the activation is inactive: 3.07%.

As to `Cc1ccc(NC(=O)Cn2c(=S)[nH]c3ccccc32)cc1`, the activation was inactive: 0.99%.

Turning to `Cn1c(=O)c2c(ncn2CC(=O)NCc2cccnc2)n(C)c1=O`, the activation was inactive: 2.56%.

Take `COc1cc(NC(=O)[C@H](C)NC(=O)N2CCn3c2nc2ccccc23)cc(OC)c1`: the activation is inactive: 0.25%.

Turning to `NNC(=O)Cn1c(-c2ccccn2)nc2ccccc21`, the activation is inactive: 4.04%.

In the case of `O=C(CCCCCNC(=O)N1CCn2c1nc1ccccc12)NCCc1ccccc1`, the activation was inactive: 1.88%.

On to `Cc1ccc2c(c1)[C@@H]1CN(C)CC[C@@H]1N2S(=O)(=O)c1ccc([N+](=O)[O-])cc1`, for which the activation is inactive: 9.35%.

Regarding `COc1ccc(OCC(=O)N2c3ccc(C)cc3C3CN(C)CCC32)cc1` (stereo unspecified), the activation is inactive: 0.62%.

Consider `CCC[n+]1cn(/C(C(=S)Nc2cccc(Cl)c2C)=C(/[O-])c2ccc(OC)c(OC)c2)c2ccccc21`, for which the activation is inactive: -6.29%.

For the molecule `Cn1c(=O)c2c(ncn2CC(=O)N2CCc3ccccc3C2)n(C)c1=O`, the activation is inactive: 2.27%.

With `CCC(=O)Nc1nnc(/C=C/c2ccccc2)s1`, the activation was inactive: -1.42%.

On to `O=C(Cn1cnc2c(OCc3ccccc3)ncnc21)NCCCc1ccccc1`, for which the activation was active: 10.2%.

Take `COCCN1CCn2c(nc3cc(NC(=O)c4ccc(OC)cc4)ccc32)C1`: the activation was inactive: -0.75%.

Consider `CCC(C)c1ccc2oc(-c3ccc(NC(=O)Cn4cnc5c(=O)n(C)c(=O)n(C)c54)cc3)nc2c1` (stereo unspecified), for which the activation is inactive: 2.44%.

Turning to `CCS(=O)(=O)c1nc2ccccc2n1CC(=O)N1CCOCC1`, the activation is inactive: -0.72%.

Take `O=C(Cn1c(CC(=O)N2CCOCC2)nc2ccccc21)Nc1ccc2c(c1)OC(F)(F)O2`: the activation was inactive: 3.16%.

Regarding `O=[N+]([O-])c1ccc(Nc2ccc(Oc3ccc([N+](=O)[O-])cc3[N+](=O)[O-])cc2)c([N+](=O)[O-])c1`, the activation was inactive: -0.74%.

Turning to `Cc1cc(SC(NC=O)C(Cl)(Cl)Cl)ncn1` (stereo unspecified), the activation was inactive: -0.78%.

With `COc1ccccc1C(=O)OCCNC(=O)Cn1cnc2c1c(=O)n(C)c(=O)n2C`, the activation was inactive: 0.09%.

Regarding `O=P(Nc1ccccn1)(c1cccc2ccccc12)c1cccc2ccccc12`, the activation is inactive: -0.38%.

Turning to `CCc1nc2ccccc2n1CC(=O)N1CCN(S(=O)(=O)c2cccc(C(F)(F)F)c2)CC1`, the activation is inactive: -2.07%.

Take `C/C(=N\NC(=O)Cn1c(C)nc2ccccc21)c1cccs1`: the activation was inactive: -1.61%.

`O=C(Cn1c(CCCO)nc2ccccc21)Nc1ccccc1-c1ccccc1`: the activation was inactive: 2.22%.

Take `CC1CN(Cc2nc3c(c(=O)n(C)c(=O)n3C)n2CCN2CCOCC2)CC(C)O1` (stereo unspecified): the activation was inactive: 0.49%.

For `CCNC(=S)N1CCn2c(nc3ccccc32)C1`, the activation is inactive: -3.06%.

In the case of `CC(C)(C)NC(=O)Cn1c(SCC(=O)NC2CCCCC2)nc2ccccc21`, the activation was inactive: 3.81%.

On to `CCCNC(=O)Cn1c(=O)n(C)c2ccccc21`, for which the activation was inactive: -1.18%.

With `COC(=O)c1ccccc1NC(=O)Cn1cnc2c1c(=O)n(C)c(=O)n2C`, the activation was inactive: 2.76%.

With `Cn1c(=O)c2c(ncn2CC(=O)N/N=C/c2ccc(Br)s2)n(C)c1=O`, the activation is inactive: -0.41%.

Regarding `Cn1c(=O)n(Cc2ccccc2)c(=O)c2c1nc1n2CCN1Cc1ccco1`, the activation was inactive: -1.92%.

As for `CC1CCNP(=O)(N(CCCl)CCCl)O1` (stereo unspecified), the activation is inactive: -0.81%.

Turning to `COCC(=O)N(C)[C@H]1C[C@H]2c3cc(-c4ccccc4)ccc3CCN2C(=O)[C@H]1[C@H](C)O`, the activation is inactive: -1.03%.

For `O=C(C1CCN(S(=O)(=O)c2cccc3cccnc23)CC1)N1CCn2c1nc1ccccc12`, the activation was inactive: -28.2%.

Consider `C[C@H](O)[C@@H]1C(=O)N2CCc3ccc(N4CCN(C)CC4)cc3[C@@H]2C[C@@H]1N(C)C(=O)NC1CCCCC1`, for which the activation was inactive: 1.86%.

As to `Cc1ccc(N(CC(=O)N2CCn3c2nc2ccccc23)S(=O)(=O)c2c(C)n[nH]c2C)cc1`, the activation was inactive: 8.18%.

`Cc1cc(C)cc(N(CC(=O)N2CCn3c2nc2ccccc23)S(=O)(=O)c2c(C)noc2C)c1`: the activation is inactive: 9.96%.

`CCCCC(=O)Nc1nnc(/C=C/c2ccc(OC)cc2)s1`: the activation is inactive: 2.54%.

For `CC(C)C[C@H](NC(=O)N1CCn2c1nc1ccccc12)C(=O)NCCc1ccccc1`, the activation was inactive: -0.54%.

For `O=C(Cn1c(C(F)(F)F)nc2ccccc21)NCCCN1CCOCC1`, the activation is inactive: 4.79%.

In the case of `Nc1ncnc2c1ncn2CCNCCc1ccccc1`, the activation was inactive: 10.2%.

`CCOC(=O)Nc1ccc([As](=O)(O)O)c(O)c1`: the activation is inactive: -2.78%.

Consider `Cc1ccc(S(=O)(=O)c2nc(-c3ccccc3Cl)oc2N(C)C2CCN(C)CC2)cc1`, for which the activation was inactive: 2.74%.

As to `Cc1ccc2c(c1)C1CN(C)CCC1N2C(=O)COc1ccccc1F` (stereo unspecified), the activation was inactive: -2.68%.

`COc1ccc(S(=O)(=O)N2CCn3c2nc2ccccc23)cc1`: the activation is inactive: -4.8%.

Take `CCCNC(=O)CC1C(=O)N(Cc2ccccc2)C(C)c2nc3ccccc3n21` (stereo unspecified): the activation was inactive: 1.63%.

Consider `Cc1ccc(-c2csc(N3CCC[C@@H]3C(=O)NCCn3c(C(F)(F)F)nc4ccccc43)n2)cc1`, for which the activation was active: 11.3%.

In the case of `CSc1nc(N)nc2c1ncn2CC(=O)NCc1ccccc1`, the activation was inactive: 5.39%.

Regarding `CC(C)[C@H](NC(=O)N1CCn2c1nc1ccccc12)C(=O)N1CCCCC1`, the activation is inactive: 4.93%.

On to `CCCN(C(=O)Cn1c(C(F)(F)F)nc2ccccc21)C1CCS(=O)(=O)C1` (stereo unspecified), for which the activation is inactive: -4.46%.

As for `CC(=O)Nc1ccc(NC(=O)Cn2c(CC(=O)N3CCCC3)nc3ccccc32)cc1`, the activation is inactive: 3.31%.

Regarding `Cc1cc(SC(NC(=O)c2ccccc2)C(Cl)(Cl)Cl)nc(C(C)C)n1` (stereo unspecified), the activation is inactive: 1.46%.

On to `COc1ccc(/C=N/c2nc3ccccc3n2CCN2CCCCC2)cc1OC`, for which the activation was inactive: 4.47%.

On to `Cc1ccc2c(c1)C1CN(C)CCC1N2C(=O)COc1ccc(N(C)C(=O)C(C)(C)C)cc1` (stereo unspecified), for which the activation was inactive: 3.62%.
